Assay results taken from patent US11541120B2, “Phosphonium-based ionic drug conjugates” (Anthos Partners, LP, priority 2017, dated 2023).

What was measured:
[1] = Partition coefficient octanol/PBS (LogD7.4); format: physicochemical; conditions: 100 μM in PBS shaken with octanol
Caco-2 = Caco-2 cell permeability; conditions: No Inhibitor
[2] = Water solubility of PBICs; conditions: MitoQ conjugate of the drug

COC1=C(OC)C(=O)C(CCCCCCCCCC[P+](c2ccccc2)(c2ccccc2)c2ccccc2)=C(C)C1=O.O=C([O-])Cc1ccccc1Nc1c(Cl)cccc1Cl [Diclofenac-MitoQ, Diclofenac-MitoQ conjugate]
(Conc. in octanol)/(Conc. in PBS) [1]: 8.53
LogD7.4 [1]: 0.93
Mean (B-A/A-B) Efflux Ratio (Caco-2): 0.0618
Mean Papp A-B (Caco-2): 34.7 10^−6 cm/s
Mean Papp B-A (Caco-2): 2.14 10^−6 cm/s
Water solubility, MitoQ Conjugate [2]: insoluble
